Values of other authors, collected in patent US20230067811A1, “MODULATING LYMPHATIC VESSELS IN NEUROLOGICAL DISEASE” (University of Virginia Patent Foundation, priority 2020, published 2023).
Like-named read-outs stand apart in the source and are kept apart here.

System: AD patients
Settings: highest dose (10 mg/kg), cited from earlier work

For Aducanumab: anti-Aβ monoclonal antibody, which cognitive decline (EMERGE cohort) is on record?
Its cognitive decline is “significantly reduced”.

And the cognitive decline (ENGAGE cohort)?
The cognitive decline was “not in the ENGAGE cohort”.
